Measurements: ChEMBL document CHEMBL1770117 (Bioorg Med Chem Lett, 2011)

Amino acid sequences for entries named in this document (tags omitted).
UniProt P41594, whole entry, looked up: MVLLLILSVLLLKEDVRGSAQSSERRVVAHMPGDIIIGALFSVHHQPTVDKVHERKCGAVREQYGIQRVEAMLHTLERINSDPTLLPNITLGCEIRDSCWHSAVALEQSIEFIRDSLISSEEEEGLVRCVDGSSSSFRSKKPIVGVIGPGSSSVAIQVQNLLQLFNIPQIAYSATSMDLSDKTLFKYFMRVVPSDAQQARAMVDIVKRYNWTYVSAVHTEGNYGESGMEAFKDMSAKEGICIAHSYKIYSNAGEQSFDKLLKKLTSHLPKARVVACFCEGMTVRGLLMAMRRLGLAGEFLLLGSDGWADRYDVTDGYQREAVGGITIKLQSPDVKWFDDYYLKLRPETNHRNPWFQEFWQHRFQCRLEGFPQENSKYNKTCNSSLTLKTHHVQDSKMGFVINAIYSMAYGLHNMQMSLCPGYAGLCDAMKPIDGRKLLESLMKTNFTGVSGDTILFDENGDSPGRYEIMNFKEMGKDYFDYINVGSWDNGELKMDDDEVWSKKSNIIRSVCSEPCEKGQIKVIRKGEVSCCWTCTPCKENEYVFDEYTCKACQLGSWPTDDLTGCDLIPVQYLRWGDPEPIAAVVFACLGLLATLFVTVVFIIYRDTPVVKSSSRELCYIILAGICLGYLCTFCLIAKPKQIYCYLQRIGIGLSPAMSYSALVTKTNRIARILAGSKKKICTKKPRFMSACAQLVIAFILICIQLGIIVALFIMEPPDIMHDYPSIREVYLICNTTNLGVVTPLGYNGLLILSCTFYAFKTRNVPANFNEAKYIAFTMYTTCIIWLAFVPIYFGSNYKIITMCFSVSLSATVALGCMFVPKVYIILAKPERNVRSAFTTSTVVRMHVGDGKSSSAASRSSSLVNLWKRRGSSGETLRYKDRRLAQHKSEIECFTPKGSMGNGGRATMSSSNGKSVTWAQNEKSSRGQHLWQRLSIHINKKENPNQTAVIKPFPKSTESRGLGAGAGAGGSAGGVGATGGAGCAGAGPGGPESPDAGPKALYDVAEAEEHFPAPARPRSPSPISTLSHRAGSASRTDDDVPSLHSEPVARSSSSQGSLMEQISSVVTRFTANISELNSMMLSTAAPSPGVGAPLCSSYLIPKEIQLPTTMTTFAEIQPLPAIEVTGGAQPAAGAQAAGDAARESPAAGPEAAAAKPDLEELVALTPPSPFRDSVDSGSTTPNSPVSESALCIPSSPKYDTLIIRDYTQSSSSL
UniProt P31424, whole entry, looked up: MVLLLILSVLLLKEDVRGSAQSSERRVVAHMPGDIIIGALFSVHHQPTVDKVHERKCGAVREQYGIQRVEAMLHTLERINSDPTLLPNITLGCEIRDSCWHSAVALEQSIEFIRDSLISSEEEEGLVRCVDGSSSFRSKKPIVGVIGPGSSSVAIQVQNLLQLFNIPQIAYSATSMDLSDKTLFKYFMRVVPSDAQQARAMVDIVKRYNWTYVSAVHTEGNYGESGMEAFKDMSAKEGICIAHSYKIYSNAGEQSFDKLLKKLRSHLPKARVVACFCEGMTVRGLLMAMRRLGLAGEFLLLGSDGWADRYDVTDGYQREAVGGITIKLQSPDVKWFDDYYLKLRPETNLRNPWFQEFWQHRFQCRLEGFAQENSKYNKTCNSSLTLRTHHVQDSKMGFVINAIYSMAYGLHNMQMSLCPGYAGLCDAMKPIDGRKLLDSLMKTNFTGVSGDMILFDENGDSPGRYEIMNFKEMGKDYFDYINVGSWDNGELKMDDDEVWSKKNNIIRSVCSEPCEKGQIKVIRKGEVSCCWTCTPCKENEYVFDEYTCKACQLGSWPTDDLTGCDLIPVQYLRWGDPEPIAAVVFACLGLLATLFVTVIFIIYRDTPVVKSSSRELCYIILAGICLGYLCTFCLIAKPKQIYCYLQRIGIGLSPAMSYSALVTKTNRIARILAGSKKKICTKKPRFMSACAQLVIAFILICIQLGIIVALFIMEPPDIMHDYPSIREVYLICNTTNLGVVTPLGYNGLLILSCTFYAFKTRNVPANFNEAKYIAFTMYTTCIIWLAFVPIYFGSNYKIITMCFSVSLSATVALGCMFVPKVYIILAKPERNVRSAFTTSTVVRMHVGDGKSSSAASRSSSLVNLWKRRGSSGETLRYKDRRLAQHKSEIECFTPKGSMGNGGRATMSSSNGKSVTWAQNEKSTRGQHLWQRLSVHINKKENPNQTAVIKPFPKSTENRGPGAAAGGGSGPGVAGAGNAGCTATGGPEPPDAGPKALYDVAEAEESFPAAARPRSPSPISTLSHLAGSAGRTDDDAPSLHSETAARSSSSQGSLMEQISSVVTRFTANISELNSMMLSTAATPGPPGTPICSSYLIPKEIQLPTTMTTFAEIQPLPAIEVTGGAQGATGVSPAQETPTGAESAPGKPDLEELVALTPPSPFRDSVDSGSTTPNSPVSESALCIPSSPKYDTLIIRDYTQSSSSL

Key:
[1] = target: Metabotropic glutamate receptor 5 (Homo sapiens) (UniProt P41594); test: Positive allosteric modulator activity at mGluR5 receptor expressed in HEK293A cells assessed as maximum glutamate-induced response preincubated for 140 secs before glutamate challenge by calcium fluorescence assay; assay type: functional, cell-based; settings: HEK293-A
[2] = target: Metabotropic glutamate receptor 5 (Rattus norvegicus, UniProt P31424); test: Positive allosteric modulator activity at mGluR5 receptor expressed in HEK293A cells assessed as effect on glutamate-induced calcium flux preincubated for 140 secs before glutamate challenge by calcium fluorescence assay; assay type: functional, cell-based, HEK293-A

In the case of O=C(C1CCCCC1)N1CCCC1c1nc(-c2cccc(F)c2)no1 (configuration not stated), the Activity [1] is reported as 8% and the EC50 [2] is reported as 10 µM.
